Test results published in ChEMBL document CHEMBL3734689, “Enzyme kinetics and inhibition of histone acetyltransferase KAT8” (Eur J Med Chem, 2015).

Molecular target: T1, Histone acetyltransferase KAT8 (Homo sapiens) (UniProt Q9H7Z6)
T1 sequence (whole entry): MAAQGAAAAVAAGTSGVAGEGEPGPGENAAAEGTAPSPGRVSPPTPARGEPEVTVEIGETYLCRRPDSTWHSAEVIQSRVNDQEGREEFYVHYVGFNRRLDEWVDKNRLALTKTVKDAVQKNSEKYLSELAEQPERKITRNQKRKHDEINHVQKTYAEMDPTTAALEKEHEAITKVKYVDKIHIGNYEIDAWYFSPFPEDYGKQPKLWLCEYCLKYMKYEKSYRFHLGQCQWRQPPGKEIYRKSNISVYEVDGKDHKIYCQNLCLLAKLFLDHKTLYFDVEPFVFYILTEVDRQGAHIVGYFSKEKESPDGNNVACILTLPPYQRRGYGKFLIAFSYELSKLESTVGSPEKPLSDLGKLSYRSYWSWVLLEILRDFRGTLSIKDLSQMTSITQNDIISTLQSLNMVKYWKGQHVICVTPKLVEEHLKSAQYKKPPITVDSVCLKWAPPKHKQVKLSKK
Experiment: Inhibition of recombinant N-terminal His6-tagged KAT8 (unknown origin) expressed in Escherichia Coli BL21 DE3 cells assessed as reduction of Co A level using histone H4 substrate at 400 uM after 15 mins by CPM fluorescence assay

Q: Which inhibition does the source give for `CCCCCCCCCCCCCCCc1cccc(O)c1C(=O)O` here?
A: > 50%
